Measured values: ChEMBL document CHEMBL5608209, “Biological and structural investigation of tetrahydro-β-carboline-based selective HDAC6 inhibitors with improved stability” (Eur J Med Chem, 2024)
The source made the active and inactive calls. No cut-off for these calls is given here.

The compounds below were run against T1, Protein deacetylase HDAC6 (Homo sapiens) (UniProt Q9UBN7). Conditions: MV4-11, dose 100.0 nM, time 24.0 hrs.
T1 sequence (whole entry): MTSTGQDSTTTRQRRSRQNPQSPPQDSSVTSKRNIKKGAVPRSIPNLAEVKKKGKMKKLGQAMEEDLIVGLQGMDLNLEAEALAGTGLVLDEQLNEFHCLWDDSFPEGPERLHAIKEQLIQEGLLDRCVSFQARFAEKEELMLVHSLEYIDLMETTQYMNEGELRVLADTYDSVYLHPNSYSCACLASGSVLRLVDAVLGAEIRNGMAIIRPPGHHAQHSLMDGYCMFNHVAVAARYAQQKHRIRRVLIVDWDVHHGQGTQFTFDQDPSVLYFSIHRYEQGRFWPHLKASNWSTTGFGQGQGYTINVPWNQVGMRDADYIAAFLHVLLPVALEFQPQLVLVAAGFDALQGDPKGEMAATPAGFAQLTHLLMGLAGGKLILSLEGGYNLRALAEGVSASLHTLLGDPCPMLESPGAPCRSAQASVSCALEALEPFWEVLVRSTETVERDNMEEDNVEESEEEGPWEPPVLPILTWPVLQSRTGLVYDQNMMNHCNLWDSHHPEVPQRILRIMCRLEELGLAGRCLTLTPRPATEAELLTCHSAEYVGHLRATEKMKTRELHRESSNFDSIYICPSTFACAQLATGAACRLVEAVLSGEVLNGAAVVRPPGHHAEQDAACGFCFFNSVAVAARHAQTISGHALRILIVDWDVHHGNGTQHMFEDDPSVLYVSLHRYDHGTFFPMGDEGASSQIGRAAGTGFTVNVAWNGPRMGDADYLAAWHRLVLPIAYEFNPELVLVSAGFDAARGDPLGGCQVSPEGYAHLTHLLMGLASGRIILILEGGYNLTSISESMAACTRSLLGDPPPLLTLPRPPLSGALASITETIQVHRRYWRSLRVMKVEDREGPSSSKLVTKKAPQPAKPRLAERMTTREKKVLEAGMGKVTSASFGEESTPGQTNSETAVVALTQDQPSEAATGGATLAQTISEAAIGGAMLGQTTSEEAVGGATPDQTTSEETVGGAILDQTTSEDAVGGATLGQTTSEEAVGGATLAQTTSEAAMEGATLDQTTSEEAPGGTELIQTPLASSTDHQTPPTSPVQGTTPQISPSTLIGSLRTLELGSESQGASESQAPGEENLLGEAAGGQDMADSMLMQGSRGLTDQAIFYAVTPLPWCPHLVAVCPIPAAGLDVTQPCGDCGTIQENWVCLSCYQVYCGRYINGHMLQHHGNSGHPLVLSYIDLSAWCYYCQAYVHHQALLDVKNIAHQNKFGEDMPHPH

inhibition, active:
CN1C(=O)N2Cc3c(c4cc(OCCN5CCOCC5)ccc4n3Cc3ccc(C(=O)NO)cc3)C(C3CCCCC3)(C2)C1=O (racemic), CN1C(=O)N2Cc3c(c4cc(O)ccc4n3Cc3ccc(C(=O)NO)cc3)C(c3cccs3)(C2)C1=O (racemic), CN1C(=O)N2Cc3c(c4cc(OCCN5CCOCC5)ccc4n3Cc3ccc(C(=O)NO)cc3)C(c3ccco3)(C2)C1=O (racemic)
